Measurements taken from US20050009060A1, “Multiplexed multitarget screening method” (priority 2003, published 2005).

By UniProt entry, the sequences of proteins in these tests, tags left out.
UniProt P32245, whole entry, species assumed: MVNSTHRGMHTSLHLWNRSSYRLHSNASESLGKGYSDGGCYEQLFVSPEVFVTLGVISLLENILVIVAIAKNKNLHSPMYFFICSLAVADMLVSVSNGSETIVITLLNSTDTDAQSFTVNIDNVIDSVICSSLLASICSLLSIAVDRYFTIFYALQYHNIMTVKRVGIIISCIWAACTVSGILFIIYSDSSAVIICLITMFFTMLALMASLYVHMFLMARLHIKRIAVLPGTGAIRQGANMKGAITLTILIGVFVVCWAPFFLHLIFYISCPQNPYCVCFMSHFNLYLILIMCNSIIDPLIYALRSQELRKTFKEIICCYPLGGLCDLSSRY

Biological target: T1, melanocortin 4 receptor (MC4R) (Homo sapiens, UniProt P32245)
T1 construct: expressed in transfected cells; host or cells: HEK293
Assay: Ca2+i levels by flow cytometry in HEK293 cells transfected with MC4R
Type: cell-based
Details: 1 uM
Excerpt: When measuring Ca^2+i responses, the power of single cell analysis provides enhanced resolving power in terms of the ability to detect weakly active compounds. […] In FIG. 21, each dot represents a single cell, where more than one cell per pixel space is represented by transitions from darker to lighter shading in a black-and-white plot, and by transitions from red to yellow to white coloring in a color plot (these transitions are also captured quantitatively). […] In FIG. 21, the solid line represents the average of the sampled population at each bin in the x-axis (time) as calculated from the single cell data. An instrument that measures the average response of the population over time, e.g., a spectrofluorimeter or a fluorescent imaging plate reader (FLIPR™), produces a plot like that of the solid line, whereas single cell analysis as provided herein yields different information. The average response measured by, e.g., a spectrofluorimeter or a FLIPR™ implies that the cellular response in all the cells in a sample develops relatively slowly over time, eventually reaching a peak value that is followed by a slow decline to the basal level. […] This behavior is consistently seen for all GPCRs analyzed at the single cell level as provided herein. […]

## NDP-αMSH [NDP-aMSH]
  Ca2+i response of single cells to ligand: only a subset of the cells respond to the ligand
